Assay [1] relates to Ba/F3 cells expressing FLT3-ITD.
In assay [2] the test system is Ba/F3 cells expressing FLT3-ITD-D835V.

For `COc1cc2cc(-c3ccc(CC(=O)Nc4cc(C(C)(C)C(F)(F)F)on4)c(F)c3)cnc2cc1OCCN1CCOCC1` [Example 197, 2-[2-fluoro-4-[6-methoxy-7-(2-morpholinoethoxy)-3-quinolyl]phenyl]-N-[5-(2,2,2-trifluoro-1,1-dimethyl-ethyl)isoxazol-3-yl]acetamide], the IC50 in assay [1] and in assay [2] was less than 10 nM in each case.
For `COc1cc2ncc(-c3ccc(CC(=O)Nc4cc(C(C)(C)C(F)(F)F)on4)c(F)c3)nc2cc1OCCN(C)C(C)=O` [Example 198, 2-[4-[7-[2-[acetyl(methyl)amino]ethoxy]-6-methoxy-quinoxalin-2-yl]-2-fluoro-phenyl]-N-[5-(2,2,2-trifluoro-1,1-dimethyl-ethyl)isoxazol-3-yl]acetamide], the IC50 in assay [1] and in assay [2] was less than 10 nM in each case.
On to `COc1cc2cc(-c3ccc(CC(=O)Nc4cc(C(C)(C)C(F)(F)F)on4)c(F)c3)cnc2cc1OCCN1CC[C@@H](O)C1` [Example 199, 2-[2-fluoro-4-[7-[2-[(3R)-3-hydroxypyrrolidin-1-yl]ethoxy]-6-methoxy-3-quinolyl]phenyl]-N-[5-(2,2,2-trifluoro-1,1-dimethyl-ethyl)isoxazol-3-yl]acetamide], for which the IC50 in assay [1] and in assay [2] was less than 10 nM in each case.
On to `COc1cc2cc(-c3ccc(CC(=O)Nc4cc(C(C)(C)C(F)(F)F)on4)c(F)c3)cnc2cc1OCCN(C)CCO` [Example 200, 2-[2-fluoro-4-[7-[2-[2-hydroxy-ethyl(methyl)amino]ethoxy]-6-methoxy-3-quinolyl]phenyl]-N-[5-(2,2,2-trifluoro-1,1-dimethyl-ethyl)isoxazol-3-yl]acetamide], for which the IC50 in assay [1] and in assay [2] was less than 10 nM each time.
On to `COc1cc2cc(-c3ccc(CC(=O)Nc4cc(C(C)(C)C(F)(F)F)on4)c(F)c3)cnc2cc1OCCNCCO` [Example 201, 2-[2-fluoro-4-[7-[2-(2-hydroxyethylamino)ethoxy]-6-methoxy-3-quinolyl]phenyl]-N-[5-(2,2,2-trifluoro-1,1-dimethyl-ethyl)isoxazol-3-yl]acetamide], for which the IC50 in assay [1] and in assay [2] was less than 10 nM throughout.
As to `COc1cc2ncc(-c3ccc(CC(=O)Nc4cc(C5(C(F)(F)F)CC5)on4)c(F)c3)nc2cc1OC[C@@H](C)O` [Example 202, 2-[2-fluoro-4-[7-[(2R)-2-hydroxypropoxy]-6-methoxy-quinoxalin-2-yl]phenyl]-N-[5-[1-(trifluoromethyl)cyclo-propyl]isoxazol-3-yl]acetamide], the IC50 in assay [1] and in assay [2] was less than 10 nM throughout.
As to `COc1cc2ncc(-c3ccc(CC(=O)Nc4cc(C(C)(C)C(F)(F)F)on4)c(F)c3)nc2cc1OCCCN1CCOCC1` [Example 203, 2-[2-fluoro-4-[6-methoxy-7-(3-morpholino-propoxy)quinoxalin-2-yl]phenyl]-N-[5-(2,2,2-trifluoro-1,1-dimethyl-ethyl)isoxazol-3-yl]acetamide], the IC50 in assay [1] and in assay [2] was less than 10 nM each time.
In the case of `COc1cc2ncc(-c3ccc(CC(=O)Nc4cc(C(C)(C)C(F)(F)F)on4)c(F)c3)cc2cc1OCCN` [Example 204, 2-[4-[6-(2-aminoethoxy)-7-methoxy-3-quinolyl]-2-fluoro-phenyl]-N-[5-(2,2,2-trifluoro-1,1-dimethyl-ethyl)isoxazol-3-yl]acetamide], the IC50 in assay [1] is less than 10 nM; in assay [2] it was 10 to 20 nM.
On the same counts, the results for `COc1cc2ncc(-c3ccc(CC(=O)Nc4cc(C(C)(C)C(F)(F)F)on4)c(F)c3)cc2cc1OCCNC(C)=O` [Example 205, 2-[4-[6-(2-acetamidoethoxy)-7-methoxy-3-quinolyl]-2-fluoro-phenyl]-N-[5-(2,2,2-trifluoro-1,1-dimethyl-ethyl)isoxazol-3-yl]acetamide] are less than 10 nM and less than 10 nM.
On the same counts, the results for `COc1cc2ncc(-c3ccc(CC(=O)Nc4cc(C(C)(C)C(F)(F)F)on4)c(F)c3)cc2cc1OCCN1CCC(F)(F)CC1` [Example 207, 2-[4-[6-[2-(4,4-difluoro-1-piperidyl)ethoxy]-7-methoxy-3-quinolyl]-2-fluoro-phenyl]-N-[5-(2,2,2-trifluoro-1,1-dimethyl-ethyl)isoxazol-3-yl]acetamide] are less than 10 nM and 20 to 50 nM.
The matching figures for `COc1cc2nc(-c3ccc(CC(=O)Nc4cc(C5(C(F)(F)F)CC5)on4)c(F)c3)cnc2cc1OC[C@@H](C)O` [Example 208, 2-[2-fluoro-4-[6-[(2R)-2-hydroxypropoxy]-7-methoxy-quinoxalin-2-yl]phenyl]-N-[5-[1-(trifluoro-methyl)cyclopropyl]isoxazol-3-yl]acetamide]: less than 10 nM and less than 10 nM.
As to `COc1cc2nc(-c3ccc(CC(=O)Nc4cc(C(C)(C)C(F)(F)F)on4)c(F)c3)cnc2cc1OCCCN1CCOCC1` [Example 209, 2-[2-fluoro-4-[7-methoxy-6-(3-morpholino-propoxy)quinoxalin-2-yl]phenyl]-N-[5-(2,2,2-trifluoro-1,1-dimethyl-ethyl)isoxazol-3-yl]acetamide], the IC50 in assay [1] and in assay [2] was less than 10 nM each time.
In the case of `COc1cc2nc(-c3ccc(CC(=O)Nc4cc(C(C)(C)C(F)(F)F)on4)c(F)c3)cnc2cc1OCCn1cncn1` [Example 210, 2-[2-fluoro-4-[7-methoxy-6-[2-(1,2,4-triazol-1-yl)ethoxy]quinoxalin-2-yl]phenyl]-N-[5-(2,2,2-trifluoro-1,1-dimethyl-ethyl)isoxazol-3-yl]acetamide], the IC50 in assay [1] and in assay [2] was less than 10 nM throughout.
Take `COc1cc2nc(-c3ccc(CC(=O)Nc4cc(C(C)(C)C(F)(F)F)on4)c(F)c3)cnc2cc1OCCn1cnnc1` [Example 211, 2-[2-fluoro-4-[7-methoxy-6-[2-(1,2,4-triazol-4-yl)ethoxy]quinoxalin-2-yl]phenyl]-N-[5-(2,2,2-trifluoro-1,1-dimethyl-ethyl)isoxazol-3-yl]acetamide]: the IC50 in assay [1] and in assay [2] was less than 10 nM throughout.
As for `COc1cc2nc(-c3ccc(CC(=O)Nc4cc(C5(C(F)(F)F)CC5)on4)c(F)c3)cnc2cc1OCCCN1CCOCC1` [Example 212, 2-[2-fluoro-4-[7-methoxy-6-(3-morpholino-propoxy)quinoxalin-2-yl]phenyl]-N-[5-[1-(trifluoro-methyl)cyclopropyl]isoxazol-3-yl]acetamide], the IC50 in assay [1] and in assay [2] was less than 10 nM throughout.
With `COc1cc2ncc(-c3ccc(CC(=O)Nc4cc(C5(C(F)(F)F)CC5)on4)c(F)c3)nc2cc1OCCCN1CCOCC1` [Example 213, 2-[2-fluoro-4-[6-methoxy-7-(3-morpholino-propoxy)quinoxalin-2-yl]phenyl]-N-[5-[1-(trifluoro-methyl)cyclopropyl]isoxazol-3-yl]acetamide], the IC50 in assay [1] and in assay [2] was less than 10 nM throughout.
Consider `COc1cc2nc(-c3ccc(CC(=O)Nc4cc(C(C)(C)C)on4)cc3)cnc2cc1OCCN1CCOCC1` [Example 215, N-(5-tert-butylisoxazol-3-yl)-2-[4-[7-methoxy-6-(2-morpholino-ethoxy)quinoxalin-2-yl]phenyl]acetamide], for which the IC50 in assay [1] and in assay [2] was less than 10 nM throughout.
With `COc1cc2ncc(-c3ccc(CC(=O)Nc4cc(C(C)(C)C(F)(F)F)on4)cc3F)nc2cc1OC` [Example 217, 2-[4-(6,7-dimethoxyquinoxalin-2-yl)-3-fluoro-phenyl]-N-[5-(2,2,2-trifluoro-1,1-dimethyl-ethyl)isoxazol-3-yl]acetamide], the IC50 in assay [1] and in assay [2] was less than 10 nM throughout.
For the compound `COc1cc2ncc(-c3cc(F)c(CC(=O)Nc4cc(C5(C(F)(F)F)CC5)on4)cc3F)nc2cc1OC` [Example 218, 2-[4-(6,7-dimethoxyquinoxalin-2-yl)-2,5-difluoro-phenyl]-N-[5-[1-(trifluoro-methyl)cyclopropyl]isoxazol-3-yl]acetamide], the IC50 in assay [1] and in assay [2] was less than 10 nM throughout.
For `COc1cc2ncc(-c3cc(F)c(CC(=O)Nc4cc(C(C)(C)C(F)(F)F)on4)cc3F)nc2cc1OC` [Example 219, 2-[4-(6,7-dimethoxyquinoxalin-2-yl)-2,5-difluoro-phenyl]-N-[5-(2,2,2-trifluoro-1,1-dimethyl-ethyl)isoxazol-3-yl]acetamide], the half-maximal inhibitory concentration (IC50) in assay [1] and in assay [2] was less than 10 nM throughout.
As for `CC(=O)NCCOc1cc2ncc(-c3ccc(CC(=O)Nc4cc(C(C)(C)C(F)(F)F)on4)c(F)c3)nc2cc1OCCNC(C)=O` [Example 220, 2-[4-[6,7-bis(2-acetamidoethoxy)quinoxalin-2-yl]-2-fluoro-phenyl]-N-[5-(2,2,2-trifluoro-1,1-dimethyl-ethyl)isoxazol-3-yl]acetamide], the IC50 in assay [1] and in assay [2] was less than 10 nM in each case.
For the compound `CC(=O)N(C)CCOc1cc2ncc(-c3ccc(CC(=O)Nc4cc(C(C)(C)C(F)(F)F)on4)c(F)c3)nc2cc1OCCN(C)C(C)=O` [Example 221, 2-[4-[6,7-bis[2-[acetyl(methyl)amino]ethoxy]quinoxalin-2-yl]-2-fluoro-phenyl]-N-[5-(2,2,2-trifluoro-1,1-dimethyl-ethyl)isoxazol-3-yl]acetamide], the IC50 in assay [1] and in assay [2] was less than 10 nM in each case.
In the case of `COc1cc2nc(-c3ccc(CC(=O)Nc4cc(C5(C(F)(F)F)CC5)on4)c(F)c3)cnc2cc1OCCCS(C)(=O)=O` [Example 222, 2-[2-fluoro-4-[7-methoxy-6-(3-methylsulfonyl-propoxy)quinoxalin-2-yl]phenyl]-N-[5-[1-(trifluoromethyl)cyclo-propyl]isoxazol-3-yl]acetamide], the IC50 in assay [1] and in assay [2] was less than 10 nM in each case.
Regarding `COc1cc2nc(-c3ccc(CC(=O)Nc4cc(C5(C(F)(F)F)CC5)on4)c(F)c3)cnc2cc1OCCN1CC2CC(C1)O2` [Example 223, 2-[2-fluoro-4-[7-methoxy-6-[2-(6-oxa-3-azabicyclo[3.1.1]heptan-3-yl)ethoxy]quinoxalin-2-yl]phenyl]-N-[5-[1-(trifluoromethyl)cyclo-propyl]isoxazol-3-yl]acetamide], the IC50 in assay [1] and in assay [2] was less than 10 nM throughout.

Values taken from patent US9725465B2, “Biaryl acetamide compounds and methods of use thereof” (Ambit Biosciences Corporation, priority 2013, dated 2017).
